{
  "source": "patent US9693954B2",
  "about": "“Co-delivery of stimulatory and inhibitory factors to create temporally stable and spatially restricted zones” (President and Fellows of Harvard College, priority 2010, dated 2017)",
  "test": "in vitro cumulative release kinetics from PLG scaffold layers (125I tracers)",
  "assay_type": "physicochemical",
  "conditions": "PLG scaffold layer, PBS, 37° C.; 4 μg VEGF, 20 μg anti-VEGF incorporated",
  "description": "The total radioactivity of each scaffold layer (n=5) was measured with a WIZARD Automatic Gamma Counter (Perkin Elmer) prior to incubation at 37° C. in 2 mL of PBS. At specific measurement time points, release solutions were measured using the Gamma counter and the scaffolds were placed in fresh release solutions. The cumulative protein release from the scaffolds at each time point was normalized as a percentage of total protein incorporated.",
  "data": [
    {"substance": "VEGF", "values": [
      {"measurement": "protein released in the first 3 days (cumulative, % of total incorporated)", "result": "Approximately 60%"}
    ]}
  ]
}
